Measurements taken from US20210238187A1, “AZIRIDINE CONTAINING EPOTHILONE ANALOGS, METHODS OF SYNTHESIS, METHODS OF TREATMENT, AND DRUG CONJUGATES” (WILLIAM MARSH RICE UNIVERSITY, priority 2017, published 2021).
pIC50: −log10 of the molar value.

System: MES SA DX
Test: Cytotoxicity assay (CellTiter-Glo), MES SA DX
Assay type: cell-based, human
Conditions: read-out: Cancer cell lines IC50, MES SA DX, MES SA cell line with marked multidrug resistance, 72 hours

In the case of `CC(=Cc1csc(C)n1)C1CC=CCCCC(C)C(O)C(C)C(=O)C(C)(C)C(O)CC(=O)O1` (stereo not shown) [compound 3, epothilone C, reference compound], the pIC50 was 7.21.
